# Literature values, collected in patent US20150289553A1, “METHOD OF DEVELOPING SAFE AND EFFECTIVE DIETARY SUPPLEMENTS” (priority 2014, published 2015).
# How the values were obtained:
# [1] = adults (18+ yrs.)
# [2] = 400 IU supplement for 7-12 years; 35,533 men
structure (smiles),measurement,setting,value
"Cc1c(C)c2c(c(C)c1O)CC[C@@](C)(CCC[C@H](C)CCC[C@H](C)CCCC(C)C)O2 [Vitamin E, RRR-alpha-tocopherol]","Upper Limits, CRN-listed Nutrients",[1],"1,000 mg"
same,"Upper Limits, CRN-listed Nutrients",[1]; value in IU in brackets,"mg (1,600 IU)"
same,risk of prostate cancer,[2],increased the risk of prostate cancer

# Like-named read-outs stand apart in the source and are kept apart here.
